The list shows a part of the results, in another mix than the full data. Some structures show a salt or complex split into parts, the way the source records it. The source made the active and inactive calls. The call rests on the fitted dose curve; in most records, active means well fitted inhibition curve with a large enough effect in the polarisation, with a control signal flat (not every such curve was filed as active); inconclusive means small, poorly fitted or top-dose-only effect, or effect the other way, or a change in a side signal; inactive means no such curve, though single readings can be large or run the other way; the % refers to the polarisation.

Amino acid sequences for entries named in this document (tags omitted).
UniProt Q03164, whole entry: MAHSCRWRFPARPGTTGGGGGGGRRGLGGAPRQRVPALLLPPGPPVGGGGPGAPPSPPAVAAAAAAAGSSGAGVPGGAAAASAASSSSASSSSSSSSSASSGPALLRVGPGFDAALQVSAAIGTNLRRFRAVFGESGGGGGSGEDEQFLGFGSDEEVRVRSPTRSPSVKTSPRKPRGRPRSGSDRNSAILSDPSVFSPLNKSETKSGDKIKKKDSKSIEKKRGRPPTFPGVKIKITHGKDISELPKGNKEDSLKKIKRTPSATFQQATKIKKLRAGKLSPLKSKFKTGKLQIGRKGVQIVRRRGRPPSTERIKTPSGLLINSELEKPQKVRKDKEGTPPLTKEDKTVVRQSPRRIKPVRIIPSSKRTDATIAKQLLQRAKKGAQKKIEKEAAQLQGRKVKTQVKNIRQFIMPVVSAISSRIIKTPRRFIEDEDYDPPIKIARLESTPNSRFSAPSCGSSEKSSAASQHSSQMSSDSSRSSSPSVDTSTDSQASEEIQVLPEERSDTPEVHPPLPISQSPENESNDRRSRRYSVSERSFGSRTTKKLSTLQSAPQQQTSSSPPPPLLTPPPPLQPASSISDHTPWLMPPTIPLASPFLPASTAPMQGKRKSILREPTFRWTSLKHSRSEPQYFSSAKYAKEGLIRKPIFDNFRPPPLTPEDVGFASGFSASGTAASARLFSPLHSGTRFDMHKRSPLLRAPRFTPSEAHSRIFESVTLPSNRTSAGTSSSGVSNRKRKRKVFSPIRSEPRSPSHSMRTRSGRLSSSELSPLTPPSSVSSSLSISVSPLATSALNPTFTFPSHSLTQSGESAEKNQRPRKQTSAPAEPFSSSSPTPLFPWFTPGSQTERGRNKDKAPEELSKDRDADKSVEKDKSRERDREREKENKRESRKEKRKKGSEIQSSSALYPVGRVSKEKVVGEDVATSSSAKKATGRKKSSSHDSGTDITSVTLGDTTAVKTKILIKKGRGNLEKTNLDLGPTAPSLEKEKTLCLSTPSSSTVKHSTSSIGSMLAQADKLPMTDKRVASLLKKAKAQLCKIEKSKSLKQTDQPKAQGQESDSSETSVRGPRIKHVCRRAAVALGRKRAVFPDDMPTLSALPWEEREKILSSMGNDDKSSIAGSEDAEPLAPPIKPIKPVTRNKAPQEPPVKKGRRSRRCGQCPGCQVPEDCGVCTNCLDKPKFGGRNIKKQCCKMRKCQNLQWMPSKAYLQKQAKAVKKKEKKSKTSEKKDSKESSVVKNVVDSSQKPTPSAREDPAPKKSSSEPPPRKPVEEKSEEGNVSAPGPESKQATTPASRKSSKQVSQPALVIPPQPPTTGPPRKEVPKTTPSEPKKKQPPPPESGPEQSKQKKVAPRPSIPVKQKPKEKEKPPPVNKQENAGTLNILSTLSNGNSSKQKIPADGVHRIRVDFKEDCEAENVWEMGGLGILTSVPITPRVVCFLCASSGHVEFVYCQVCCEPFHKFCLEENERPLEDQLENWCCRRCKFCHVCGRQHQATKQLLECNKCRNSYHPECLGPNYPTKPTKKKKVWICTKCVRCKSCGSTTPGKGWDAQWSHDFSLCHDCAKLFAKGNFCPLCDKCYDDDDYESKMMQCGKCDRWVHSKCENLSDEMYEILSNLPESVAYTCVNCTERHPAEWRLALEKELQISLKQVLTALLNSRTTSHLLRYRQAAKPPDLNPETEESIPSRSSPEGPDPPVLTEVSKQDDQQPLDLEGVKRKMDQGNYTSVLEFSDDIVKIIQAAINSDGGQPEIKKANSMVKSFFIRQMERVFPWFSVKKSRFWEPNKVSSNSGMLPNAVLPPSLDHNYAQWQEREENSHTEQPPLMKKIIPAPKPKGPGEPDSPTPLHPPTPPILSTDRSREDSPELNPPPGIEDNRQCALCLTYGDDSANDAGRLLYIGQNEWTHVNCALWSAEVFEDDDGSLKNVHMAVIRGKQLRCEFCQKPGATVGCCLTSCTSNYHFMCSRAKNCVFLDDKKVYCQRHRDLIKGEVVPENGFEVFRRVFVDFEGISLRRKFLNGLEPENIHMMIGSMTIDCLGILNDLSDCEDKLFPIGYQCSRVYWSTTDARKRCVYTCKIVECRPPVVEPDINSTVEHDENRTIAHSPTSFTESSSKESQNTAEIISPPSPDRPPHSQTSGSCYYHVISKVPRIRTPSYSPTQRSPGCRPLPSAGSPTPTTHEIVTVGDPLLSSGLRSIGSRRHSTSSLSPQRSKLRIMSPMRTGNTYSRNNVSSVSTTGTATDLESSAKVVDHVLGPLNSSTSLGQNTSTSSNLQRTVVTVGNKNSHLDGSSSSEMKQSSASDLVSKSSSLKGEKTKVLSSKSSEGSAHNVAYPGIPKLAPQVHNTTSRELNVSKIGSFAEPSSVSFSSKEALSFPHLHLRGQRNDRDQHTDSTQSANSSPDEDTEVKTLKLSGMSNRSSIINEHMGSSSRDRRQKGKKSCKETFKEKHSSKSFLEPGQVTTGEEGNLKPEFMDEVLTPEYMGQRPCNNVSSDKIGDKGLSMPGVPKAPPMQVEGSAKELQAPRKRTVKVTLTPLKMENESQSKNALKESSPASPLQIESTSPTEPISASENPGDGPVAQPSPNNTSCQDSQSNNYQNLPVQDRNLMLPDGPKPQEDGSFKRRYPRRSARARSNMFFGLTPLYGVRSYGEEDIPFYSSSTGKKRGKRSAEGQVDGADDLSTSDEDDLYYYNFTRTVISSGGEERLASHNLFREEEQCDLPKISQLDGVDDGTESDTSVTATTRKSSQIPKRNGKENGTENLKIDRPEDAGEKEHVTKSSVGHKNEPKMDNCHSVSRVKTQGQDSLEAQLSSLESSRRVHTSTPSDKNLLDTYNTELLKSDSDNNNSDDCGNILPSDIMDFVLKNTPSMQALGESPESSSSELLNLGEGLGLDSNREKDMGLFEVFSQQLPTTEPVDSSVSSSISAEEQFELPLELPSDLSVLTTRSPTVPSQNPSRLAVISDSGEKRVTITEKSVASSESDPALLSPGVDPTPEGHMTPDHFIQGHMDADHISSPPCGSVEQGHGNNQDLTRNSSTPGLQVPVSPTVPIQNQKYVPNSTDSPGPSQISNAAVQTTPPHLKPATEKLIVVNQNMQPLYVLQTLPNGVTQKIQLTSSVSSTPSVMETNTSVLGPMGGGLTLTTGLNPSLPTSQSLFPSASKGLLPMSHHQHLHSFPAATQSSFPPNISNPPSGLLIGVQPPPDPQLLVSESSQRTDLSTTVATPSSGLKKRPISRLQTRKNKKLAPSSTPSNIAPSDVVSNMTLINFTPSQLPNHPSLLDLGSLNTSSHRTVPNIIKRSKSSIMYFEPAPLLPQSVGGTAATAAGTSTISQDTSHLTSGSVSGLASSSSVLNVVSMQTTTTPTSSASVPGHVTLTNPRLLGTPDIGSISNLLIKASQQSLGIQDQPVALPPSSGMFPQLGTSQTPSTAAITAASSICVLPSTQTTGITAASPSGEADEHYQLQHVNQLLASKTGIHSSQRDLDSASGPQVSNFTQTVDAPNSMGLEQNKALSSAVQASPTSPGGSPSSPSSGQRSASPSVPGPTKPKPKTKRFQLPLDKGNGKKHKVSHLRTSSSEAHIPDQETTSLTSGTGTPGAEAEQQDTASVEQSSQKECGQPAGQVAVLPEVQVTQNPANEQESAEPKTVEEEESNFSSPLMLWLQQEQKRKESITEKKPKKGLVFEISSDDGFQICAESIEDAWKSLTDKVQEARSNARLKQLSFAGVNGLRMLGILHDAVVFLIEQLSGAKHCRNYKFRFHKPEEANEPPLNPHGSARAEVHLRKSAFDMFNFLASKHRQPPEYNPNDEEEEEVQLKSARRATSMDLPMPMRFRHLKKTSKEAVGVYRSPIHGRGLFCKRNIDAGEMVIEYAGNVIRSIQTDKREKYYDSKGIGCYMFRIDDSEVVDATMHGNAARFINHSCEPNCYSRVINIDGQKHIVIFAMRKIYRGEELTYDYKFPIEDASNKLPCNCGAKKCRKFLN

This assay addresses Histone-lysine N-methyltransferase 2A (Homo sapiens) (UniProt Q03164). Put plainly: qHTS Fluorescence Polarization Assay for Inhibitors of MLL CXXC domain - DNA interaction. The following applies: MLL-CXXC / FITC-HOXA9 DNA fluorescence polarization; at 115 µM (top of the series). (In general: In qHTS, concentration-response curves come from the screen itself.)
Take `COc1ccc(CN(CCCl)CCCl)cc1Cl`: the activity change, negative = inhibition was inactive: 22.2%.

On to `CCCOc1ccc(C(=O)NCC2(N(C)C)CCCCC2)cc1OC`, for which the activity change, negative = inhibition is inactive: -12.9%.

Turning to `O=C(OC1CN2CCC1CC2)c1ccc([N+](=O)[O-])cc1` (stereo unspecified), the activity change, negative = inhibition is inactive: 2.98%. For the compound `COc1ccc2c(c1O)-c1c(O)c(OC)cc3c1[C@H](C2)[N+](C)(C)CC3.O=[N+]([O-])c1cc([N+](=O)[O-])c([O-])c([N+](=O)[O-])c1[O-]`, the activity change, negative = inhibition is inactive: 0.319%. Next, `N#CC1(Nc2ccccc2)CCN(CCc2ccccc2)CC1`: inactive: 3.94%; `CCN1CCC(Nc2ccc(Cl)cc2)CC1`: inactive: -4.11%; `O=C(NCC1(N2CCCCC2)CCCCC1)c1cccc([N+](=O)[O-])c1`: inactive: 3.17%. Next, `O=C(NCC1(N2CCCCC2)CCCCC1)c1ccc(OC(F)F)cc1`: inactive: 1.23%; `COc1cc(C(=O)NCC2(N3CCCCC3)CCCCC2)ccc1OC(F)F`: inactive: 2.97%.

For the compound `O=C(NCC1(N2CCOCC2)CCCCC1)c1cc(=O)[nH]c2ccccc12`, the activity change, negative = inhibition was inactive: -3.02%.

In the case of `CN1CCN(CCOC(=O)C(O)(c2ccccc2)c2ccccc2)CC1`, the activity change, negative = inhibition is inactive: 7.58%. As to `COc1ccc(NC2CCN(C(=O)OC(C)(C)C)CC2)cc1`, the activity change, negative = inhibition was inactive: 4.36%.

Take `O=[N+]([O-])c1cc([N+](=O)[O-])c(NCC2CCS(=O)(=O)C2)c([N+](=O)[O-])c1` (stereo unspecified): the activity change, negative = inhibition is inactive: -2.45%. Next, `O=C(NCC1(N2CCCCC2)CCCCC1)c1cccc(C(F)(F)F)c1`: inactive: 1.35%.

Take `COc1ccc(NC2CCN(CCc3ccccc3)CC2)c(OC)c1`: the activity change, negative = inhibition was inactive: -0.243%. Next, `CCOC(=O)N1CCC(Nc2ccc(F)cc2)CC1`: inactive: 5.88%; `O=C(NCC1(N2CCCCC2)CCCCC1)c1ccc(F)cc1`: inactive: 6.89%; `CCOc1ccc(C)cc1CN(CCCl)CCCl`: inactive: -6.99%.

Turning to `Cc1ccc(OCC(C)C)c(CN(CCCl)CCCl)c1`, the activity change, negative = inhibition is inactive: -0.0695%.

Take `COc1cc(C(=O)NCC2(N(C)C)CCCCC2)ccc1OC(F)F`: the activity change, negative = inhibition was inactive: 8.66%. Next, `CCOC(=O)N1CCC(Nc2cccc(C)c2)CC1`: inactive: 16.7%; `CSc1ccccc1C(=O)NCC1(N2CCCCC2)CCCCC1`: inactive: 8.15%.

Turning to `CC(C)(C)OC(=O)N1CCC(N(C(=O)c2ccccc2)c2ccc(F)cc2)CC1`, the activity change, negative = inhibition is inactive: -3.44%. Next, `COc1ccc(C(=O)NCC2(N3CCCCC3)CCCCC2)c(OC)c1OC`: inactive: 1.25%; `COc1ccc(C(=O)NCC2(N3CCCCC3)CCCCC2)cc1`: inactive: 3.21%. Next, `O=C(NCC1(N2CCCCC2)CCCCC1)c1ccc(=O)[nH]c1`: inactive: 4%.

Consider `O=C(OC1CN2CCC1CC2)C1c2ccccc2Oc2ccccc21` (stereo unspecified), for which the activity change, negative = inhibition was inactive: 7.96%. The figure for `N#CC1(Nc2ccccc2)CCN(Cc2ccccc2)CC1` is inactive: -2.18%; for `CCOC(=O)N1CCC(Nc2ccc(OC)cc2)CC1` it is inactive: -15.5%; for `Cc1cc(C)cc(N(C(=O)c2ccccc2)C2CCN(C(=O)OC(C)(C)C)CC2)c1` it is inactive: 0.858%. `O=C(NCC1(N2CCOCC2)CCCCC1)c1cc2ccccc2o1`: the activity change, negative = inhibition is inactive: 3.93%.

Values taken from PubChem BioAssay AID2662 (National Center for Advancing Translational Sciences (NCATS), 2010).
